GIV Gai3 FP = blocks GIV peptide binding to rat Galpha-i3. P08753. Galpha-i3/FITC-GIV peptide fluorescence polarization, 90 min; stronger effect = lower value; scaled: aluminum fluoride 0%, vehicle 100%. percent of control (FP), % (test concentration not listed). 0.42% of 210,000 active. AID 1224905;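 active = replicate mean at 85% of control or lower, very high polarization wells dropped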;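 note: wells of about 15 µL received 100 nL stock; the first replicate is given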
GIV-Gai FP conf = GIV-Galpha-i3 inhibition, FP confirmation; shares compounds with GIV Gai3 FP; FITC-GIV peptide binding to Galphai3, fluorescence polarization; active compounds read low; fluorescence polarization, mP at 100 µM; actives 38% (n = 580); AID 1259350;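 active means inhibition score of 15 or more, meaning 100 minus mean polarization as percent of control over three replicates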;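 further: lower mP means peptide displaced from Galphai3 so more inhibition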
GIV-Gai AS conf = confirmation of inhibitors of GIV binding to human Galpha-i3; shares compounds with GIV Gai3 FP; AlphaScreen Galphai3-GIV binding, purified proteins, 90 min; active compounds read low; AlphaScreen counts at 100 µM; actives 39% (n = 580); AID 1259351;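 active means inhibition score at or above a set limit, where the score is 100 minus the three-replicate mean percent of control signal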
Numbers stand for hits; - = inactive. This excerpt belongs to a sample that is enriched for hits.

SMILES	GIV Gai3 FP	others
O=C(O)c1cnc(N2CCOCC2)c(NS(=O)(=O)c2ccccc2)c1	49.0	GIV-Gai FP conf=35.8;GIV-Gai AS conf=-
COc1cccc(NC(=O)C2CCN(c3ncnc4c3sc3nc(C)cc(-c5ccccc5)c34)CC2)c1	-
CCc1ccc(C2=C(C)C(N3CCCN(C(=O)C(C)(C)C)CC3)=NS2(=O)=O)cc1	-
COC(=O)c1cc(C(=O)Nc2ccc(Cl)cc2)c(=O)[nH]c1C	-	GIV-Gai FP conf=-;GIV-Gai AS conf=-
COC(=O)c1cc(C(=O)Nc2ccc(C)cc2)c(=O)[nH]c1C	-
COC(=O)c1cc(C(=O)Nc2ccc(OC)c(Cl)c2)c(=O)[nH]c1C	-
CCOC(=O)c1sc2nc(SCC#N)n(Cc3ccc(C)cc3)c(=O)c2c1C	-
CC(C)n1c(N2CCN(C(=O)C3CCCO3)CC2)cc(=O)n(C(C)C)c1=O (configuration not stated)	-
NC(=O)COc1ccc(C=C2C(=O)c3ccccc3C2=O)cc1	-
CCC1C/C(=C\c2ccc(Br)cc2)C(=O)/C(=C/c2ccc(Br)cc2)C1 (configuration not stated)	-
CCC1C/C(=C\c2ccc(OCC(N)=O)cc2)C(=O)/C(=C/c2ccc(OCC(N)=O)cc2)C1 (configuration not stated)	-	GIV-Gai FP conf=-;GIV-Gai AS conf=15830
O=C(COC(=O)CSc1nc(-c2ccccc2)cc(-c2ccccc2)n1)NCc1ccccc1	-
OC(CN1CCN(Cc2ccc(Cl)cc2Cl)CC1)Cn1c2ccccc2c2ccccc21 (configuration not stated)	-
CCOC(=O)c1ccc(N2C(=O)NC(=O)/C(=C/c3ccc(OC)cc3OC)C2=O)cc1	-
COc1ccccc1N1CCN(C(=O)CSc2nc(NCc3ccc(Cl)cc3)c3ccccc3n2)CC1	-
Cc1c(C(=O)NCC(c2ccccc2)c2c[nH]c3ccccc23)oc2ccccc12 (configuration not stated)	-
Cc1[nH]n(-c2ccccc2)c(=O)c1C(c1cc(Br)cc(Cl)c1O)c1c(C)[nH]n(-c2ccccc2)c1=O	-
COc1ccc(OC)c(NC(=O)N2CCN(c3nc4ccccc4n4cccc34)CC2)c1	-
COc1ccccc1NC(=O)N1CCN(c2nc3cc(F)ccc3n3cccc23)CC1	-
COc1ccc(Cl)cc1NC(=O)N1CCN(c2nc3ccccc3n3cccc23)CC1	83.3	GIV-Gai FP conf=-;GIV-Gai AS conf=-
CN1C(=O)c2ccccc2C(C(=O)Nc2ccc(F)c(Cl)c2)C1c1c[nH]c2ccccc12 (configuration not stated)	-
CCOC(=O)c1ccc(NC(=O)Nc2cccc(OCc3cc(=O)n4ccc(C)cc4n3)c2)cc1	84.7	GIV-Gai FP conf=-;GIV-Gai AS conf=-
Cc1ccn2c(=O)cc(COc3ccc(NC(=O)Nc4cccc(Cl)c4C)cc3)nc2c1	-
COc1ccc(C)cc1NC(=O)Nc1cccc(OCc2cc(=O)n3ccc(C)cc3n2)c1	-
COc1ccc(/C=C2/SC(=S)N(CN3CCC(C)CC3)C2=O)cc1	-
SMILES	GIV Gai3 FP	others
COc1cccc2c1OCC(C(=O)n1cccn1)=C2	-
CCc1ccc(NC(=O)c2cc3c(=O)[nH]c4ccccc4c3n2C)cc1	-
CCOc1ccccc1NC(=O)Cn1cnc2c(nnn2Cc2ccc(F)cc2)c1=O	-
O=C(/C=C1/NCCS1)c1ccc(Cl)cc1	-
COc1ccc(NC(=O)C2CCCN(c3ncnc4c3oc3ccccc34)C2)cc1 (configuration not stated)	-
O=C(O)C(=Cc1ccc(-c2cccc(C(F)(F)F)c2)o1)C(=O)O	84.5	GIV-Gai FP conf=-;GIV-Gai AS conf=15696
N#C/C(=C/c1ccc(-c2cccc(C(F)(F)F)c2)o1)c1cccc(F)c1	-
N#C/C(=C/c1ccc(-c2cccc(C(F)(F)F)c2)o1)c1ccc(C(=O)O)cc1	-
O=C(O)C(c1ccccc1)N1C(=O)/C(=C/c2ccncc2)SC1=S (configuration not stated)	79.8	GIV-Gai FP conf=-;GIV-Gai AS conf=-
CSCCC(C(=O)O)N1C(=O)/C(=C/c2cccnc2)SC1=S (configuration not stated)	-
Cc1ccc(/C=C2\SC(=S)N(C(Cc3ccccc3)C(=O)O)C2=O)cc1 (configuration not stated)	-
Cc1nc(-c2ccc(Cl)c(S(=O)(=O)N3CCCC(C(=O)NCc4ccc(Cl)cc4)C3)c2)no1 (configuration not stated)	-
CCCCN(CC)c1ncc(NS(=O)(=O)CC)cc1C(=O)O	-
CCCN(CCC)c1ncc(NS(=O)(=O)CC)cc1C(=O)O	-
CCN(CCN(C)C)c1ncc(NS(=O)(=O)CC)cc1C(=O)O	70.8	GIV-Gai FP conf=34.2;GIV-Gai AS conf=21018
Cc1oc(-c2ccc(Cl)cc2)cc1C(=O)Nc1ccccc1	-
COc1ccc(N2CC(c3nnc(NC(=O)c4sc5ccccc5c4Cl)s3)CC2=O)cc1 (configuration not stated)	-
[N-]=[N+]=c1c(=O)ccc2c(=O)c3ccccc3c(=O)c1=2	62.7	GIV-Gai FP conf=44.1;GIV-Gai AS conf=2044
CC1=C(C#N)C(=O)NC(=O)/C1=C\c1ccc(-c2ccc(S(N)(=O)=O)cc2)o1	-
CC1(C)OC(=O)C(=Cc2ccc(-c3ccc(S(N)(=O)=O)cc3)o2)C(=O)O1	-	GIV-Gai FP conf=-;GIV-Gai AS conf=4423
NS(=O)(=O)c1ccc(-c2ccc(/C=C3\Sc4ccccc4C3=O)o2)cc1	-
O=C(NC1CCCC1)C1CCCN(S(=O)(=O)c2cc(-c3noc(C4CCC4)n3)cs2)C1 (configuration not stated)	-
O=C(NC1CCCCC1)C1CCN(c2cncnc2N2CCCC2)CC1	-
O=C1Nc2ccccc2O/C1=C\c1ccc(C(=O)NCCN2CCOCC2)cc1	-
N#Cc1ccsc1/N=C/c1ccccc1	-
SMILES	GIV Gai3 FP	others
Cc1ccc(C)n1-c1sccc1C#N	-
Cc1ccc(/C=N/c2sccc2C#N)cc1	48.4	GIV-Gai FP conf=39.8;GIV-Gai AS conf=10146
COc1ccc(CNC(=O)c2cccc(Oc3cc(-c4ccccc4)ncn3)c2)c(OC)c1	-
CCOC(=O)c1cc(C#N)c(SCC(=O)c2ccc(Br)cc2)nc1N	-
N#CC(C(=O)NCCc1ccccc1)c1nc2ccccc2nc1N1CCOCC1 (configuration not stated)	-	GIV-Gai FP conf=-;GIV-Gai AS conf=-
CCN(CC)c1nc2ccccc2nc1C(C#N)C(=O)NCCc1ccccc1 (configuration not stated)	-
CCN1CCN(c2nc3ccccc3nc2C(C#N)C(=O)OCc2ccccc2)CC1 (configuration not stated)	-
CCOc1ccc(Nc2cc(C)nc3c(C)c(-c4ccc(OC)c(OC)c4)nn23)cc1	-
Cc1sc2ncn3c(SCC(=O)Nc4ccc5c(c4)CCC5)nnc3c2c1C	-
O=C1c2ccccc2C(=O)C1c1ccccc1Br	-
O=C(c1ccccc1)C1C(=O)c2ccccc2C1=O	-
O=C1c2ccccc2C(=O)C1C(c1ccccc1)C1C(=O)c2ccccc2C1=O	76.0	GIV-Gai FP conf=-;GIV-Gai AS conf=5972
CCOC(=O)c1c(C)n(C)c2ccc(OC)c(S(=O)(=O)c3ccc(OC)cc3)c12	-
Cc1ccc(-n2nc3c(c2NC(=O)COc2ccc(Cl)cc2Cl)CS(=O)(=O)C3)c(C)c1	-
O=C(Nc1ccccc1)Nc1cccc(-c2noc(-c3cc4ccccc4[nH]3)n2)c1	-
CCN(CC)c1ccc2cc(S(=O)(=O)c3ccc(F)c(Cl)c3)c(=O)oc2c1	56.2	GIV-Gai FP conf=-;GIV-Gai AS conf=-

High-throughput results: PubChem, ICCB-Longwood Screening Facility, Harvard Medical School
